Assay results from patent US20140106440A1, “ENHANCED ENZYMATIC CO2 CAPTURE TECHNIQUES ACCORDING TO SOLUTION PKA, TEMPERATURE AND/OR ENZYME CHARACTER” (CO2 SOLUTIONS INC., priority 2011, published 2014).

System: thermostable variant of hCA II ('5X' mutant, M5X)
Assay: CO2 absorption rate in stirred cell, alkanolamine solution with 5X CA (M5X) enzyme

dimethylethanolamine was tested, and the “k3*” value (least squares method) was 0.058 m^6 · mol^−1 · kg^−1 · s^−1, the “k4*” value (least squares method) was 0.130 m^3 · kg^−1 and the “k3*” value (linear regression method) was 0.067 m^6 · mol^−1 · g^−1 · s^−1. For the same substance, the “k4*” value (linear regression method) was 0.350 m^3 · g^−1.
